Reference: patent US20040048237A1 (priority 2002, published 2004)

Tested on: N2A cells stably transfected with presenilin1
Experiment: Killing of N2A cells stably transfected with presenilin1 by MG132

SMILES: CC(C)C[C@@H](C=O)NC(=O)[C@H](CC(C)C)NC(=O)[C@H](CC(C)C)NC(=O)OCc1ccccc1 [MG132]
- selective killing of transfected cells: no selective killing
